The list shows a part of the results, in another mix than the full data. Some results for these compounds are left out of this collection, so the calls shown say nothing about other tests. Results filed as inconclusive are left out. Calls of active or inactive are those of the source. Unless noted, the call rests on the fitted dose curve; in most records, active means well fitted curve in the direction sought with a large enough effect in the repeat runs; inconclusive means weak or mixed curves; inactive means no such curve, though single readings can be large; an effect the other way counts as inactive or inconclusive.
Legend:
[1] = qHTS assay for identifying genotoxic compounds that show differential cytotoxicity against isogenic chicken DT40 cell lines with known DNA damage response pathways - wild type cell line (AID 743012); settings: DT40 wild type chicken cells viability, CellTiter-Glo, 40 h; at 68.4 µM (top of the series); further: nearly all actives have a fitted effect of over 60% in size
Outline: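 Viability by ATP luminescence (CellTiter-Glo, 30 min RT) after 40 h compound treatment at 37 C/5% CO2, using 300 parental DNA repair-proficient DT40 cells per well.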

Chains of the proteins cited; added tags and fusions are not shown.
UniProt P03372, whole entry: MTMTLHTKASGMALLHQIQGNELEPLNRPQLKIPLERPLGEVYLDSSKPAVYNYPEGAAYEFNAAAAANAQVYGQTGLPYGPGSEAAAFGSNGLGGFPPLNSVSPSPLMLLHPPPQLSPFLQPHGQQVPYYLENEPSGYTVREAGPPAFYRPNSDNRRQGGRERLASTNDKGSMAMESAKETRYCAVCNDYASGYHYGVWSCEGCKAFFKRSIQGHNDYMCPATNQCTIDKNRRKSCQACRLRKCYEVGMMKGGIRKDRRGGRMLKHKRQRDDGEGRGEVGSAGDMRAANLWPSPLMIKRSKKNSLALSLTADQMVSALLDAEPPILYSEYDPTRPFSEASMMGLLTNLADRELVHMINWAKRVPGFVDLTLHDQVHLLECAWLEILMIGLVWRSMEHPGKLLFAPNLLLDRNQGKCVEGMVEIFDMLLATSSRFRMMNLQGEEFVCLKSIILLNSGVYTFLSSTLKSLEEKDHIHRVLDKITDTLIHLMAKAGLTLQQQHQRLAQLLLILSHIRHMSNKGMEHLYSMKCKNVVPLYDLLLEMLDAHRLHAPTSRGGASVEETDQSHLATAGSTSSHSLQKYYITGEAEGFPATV
UniProt P11511, whole entry: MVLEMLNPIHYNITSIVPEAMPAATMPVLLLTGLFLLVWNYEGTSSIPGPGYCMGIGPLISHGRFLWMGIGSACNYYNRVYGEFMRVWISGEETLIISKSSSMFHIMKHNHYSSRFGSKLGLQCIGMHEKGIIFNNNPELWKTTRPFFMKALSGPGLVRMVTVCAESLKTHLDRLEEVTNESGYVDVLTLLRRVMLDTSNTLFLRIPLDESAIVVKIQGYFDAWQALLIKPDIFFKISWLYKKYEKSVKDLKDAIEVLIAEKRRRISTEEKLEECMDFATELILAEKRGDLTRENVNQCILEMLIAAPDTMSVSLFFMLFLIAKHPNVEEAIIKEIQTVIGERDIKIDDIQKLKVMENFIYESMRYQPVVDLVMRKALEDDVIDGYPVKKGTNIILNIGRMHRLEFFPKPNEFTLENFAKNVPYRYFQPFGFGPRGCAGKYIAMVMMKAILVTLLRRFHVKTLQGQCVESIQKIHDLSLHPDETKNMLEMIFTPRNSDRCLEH
UniProt P37231, whole entry: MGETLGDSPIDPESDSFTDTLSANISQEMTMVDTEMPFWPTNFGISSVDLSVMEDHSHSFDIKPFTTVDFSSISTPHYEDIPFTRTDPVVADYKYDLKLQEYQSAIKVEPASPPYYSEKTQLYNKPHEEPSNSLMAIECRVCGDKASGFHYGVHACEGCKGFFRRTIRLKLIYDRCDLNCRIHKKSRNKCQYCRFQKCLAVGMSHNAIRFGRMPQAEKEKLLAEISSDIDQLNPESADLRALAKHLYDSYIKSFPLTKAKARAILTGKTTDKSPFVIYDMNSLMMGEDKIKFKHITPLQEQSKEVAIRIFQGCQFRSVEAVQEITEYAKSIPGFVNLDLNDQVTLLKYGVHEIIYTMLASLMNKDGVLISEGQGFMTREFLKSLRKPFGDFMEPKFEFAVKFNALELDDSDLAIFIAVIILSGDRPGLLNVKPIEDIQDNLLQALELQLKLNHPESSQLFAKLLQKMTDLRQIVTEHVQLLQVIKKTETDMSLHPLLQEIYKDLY

[2] = qHTS assay for identifying genotoxic compounds that show differential cytotoxicity against isogenic chicken DT40 cell lines with known DNA damage response pathways - Rev3 mutant cell line (AID 743014); settings: chicken DT40 Rev3-/- viability, CellTiter-Glo, 40 h; at 68.4 µM (top of the series); further: nearly all actives have a fitted effect of over 55% in size
[3] = qHTS assay for identifying genotoxic compounds that show differential cytotoxicity against isogenic chicken DT40 cell lines with known DNA damage response pathways - Rad54/Ku70 mutant cell line (AID 743015); settings: DT40 Rad54/Ku70 mutant viability, CellTiter-Glo, 40 h; at 66.8 µM (top of the series); further: nearly all actives have a fitted effect of over 60% in size
[4] = qHTS assay to identify small molecule antagonists of the androgen receptor (AR) signaling pathway - cell viability counter screen (AID 743033; further: nearly all actives have a fitted effect of over 45% in size); settings: AR-bla HEK293 viability, CellTiter-Glo luminescence, 16 h; at 58.5 µM (top of the series)
Text: National Center for Advancing Translational Sciences [NCATS]
NIH Chemical Genomics Center [NCGC]
U.S. Environmental Protection Agency [EPA]
National Institutes of Environmental Health Sciences [NIEHS]
National Toxicology Program [NTP]
U.S. Food and Drug Administration [FDA]
Androgen receptor (AR), a nuclear hormone receptor, plays a critical role in AR-dependent prostate cancer and other androgen related diseases. Endocrine disrupting chemicals (EDCs) and their interactions with steroid hormone receptors like AR may cause disruption of normal endocrine function as well as interfere with metabolic homeostasis, reproduction, developmental and behavioral functions. […]
AR-bla cells were dispensed at 2,000 cells/5 uL of assay medium per well into black wall/clear-bottom 1536-well plates using a Multidrop Combi (ThermoFisher Scientific, Waltham, MA) dispenser. […] After 1 uL of LiveBLAzerTM B/G FRET substrate was added using a Bioraptr FRD, the plates were incubated at room temperature for 2 h and fluorescence intensity was measured by an Envision plate reader (PerkinElmer, Shelton, CT). For cell viability readout that measures cytotoxicity, 4 ul/well of CellTiter-Glo reagent was added into the assay plates using a Bioraptr FRD. After 30 min incubation at room temperature, the luminescence intensity in the plates was measured using a ViewLux (PerkinElmer) plate reader.

[5] = qHTS assay to identify small molecule antagonists of the androgen receptor (AR) signaling pathway using the MDA cell line - cell viability counter screen (AID 743041; further: nearly all actives have a fitted effect of over 45% in size); settings: MDA-kb2 viability, CellTiter-Fluor, 16 h, cells co-treated with R1881 androgen agonist; at 70.3 µM (top of the series)
Outline: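 qHTS viability read-out; MDA-kb2 AR-luc; R1881-stimulated; 16 h exposure at 37C, 0% CO2; CellTiter-Fluor, 30 min; fluorescence intensity.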

[6] = qHTS assay to identify small molecule antagonists of the thyroid receptor (TR) signaling pathway - cell viability counter screen (AID 743064); settings: GH3.TRE-Luc viability, CellTiter-Fluor, 24 h; at 70.3 µM (top of the series); further: nearly all actives have a fitted effect of over 50% in size
Outline: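 In rat pituitary GH3.TRE-Luc reporter cells co-exposed to compound and 1 nM T3 for 23.5 h, cytotoxicity was assessed with CellTiter-Fluor in the same wells, read by fluorescence.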

[7] = qHTS assay to identify small molecule antagonists of the thyroid receptor (TR) signaling pathway (AID 743065); settings: GH3.TRE-Luc, T3-stimulated luciferase inhibition, 23.5 h; at 70.3 µM (top of the series); further: nearly all actives have a fitted effect of over 55% in size
Outline: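 GH3.TRE-Luc rat pituitary cells carrying two TR response elements driving luciferase were plated for 4 h, given compound plus 1 nM T3 (final), and incubated 23.5 h at 37 C. ONE-Glo luminescence measured reporter inhibition; CellTiter-Fluor fluorescence tracked cytotoxicity.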

[8] = system: thyroid hormone receptor (rat, GH3 cells); assay: qHTS assay to identify small molecule agonists of the thyroid receptor (TR) signaling pathway (AID 743066; calls by dose curve); settings: GH3.TRE-Luc cells, TR agonist luciferase, 24 h; at 83.9 µM (top of the series)
[9] = target: Estrogen receptor (Homo sapiens) (UniProt P03372); assay: qHTS assay to identify small molecule antagonists of the estrogen receptor alpha (ER-alpha) signaling pathway (AID 743069; active means well fitted curve in the direction sought with a large enough effect in the signal ratio in the repeat runs, not every such curve was filed as active; the % refers to the signal ratio); settings: HEK293 ER-alpha-UAS-bla, beta-lactamase ratio, antagonist mode; at 69.4 µM (top of the series)
Outline: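 Screening used a UAS-driven beta-lactamase reporter integrated into HEK293 cells expressing ER-alpha, stimulated with 17beta-estradiol alongside test compounds over 18 hr at 37C; signal came from LiveBLAzer B/G FRET fluorescence.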

[10] = qHTS assay to identify small molecule antagonists of the estrogen receptor alpha (ER-alpha) signaling pathway - cell viability counter screen (AID 743074; calls by dose curve; further: nearly all actives have a fitted effect of over 45% in size); settings: ERalpha-bla HEK293 viability, CellTiter-Glo luminescence, 18 h; at 69.4 µM (top of the series)
[11] = target: Estrogen receptor (Homo sapiens) (UniProt P03372); assay: qHTS assay to identify small molecule agonists of the estrogen receptor alpha (ER-alpha) signaling pathway (AID 743075; calls by dose curve); settings: HEK293 ER-alpha-UAS-bla, beta-lactamase FRET ratio, 18 h; at 70.1 µM (top of the series)
[12] = target: Estrogen receptor (Homo sapiens) (UniProt P03372); assay: qHTS assay to identify small molecule agonists of the estrogen receptor alpha (ER-alpha) signaling pathway using the BG1 cell line (AID 743079); settings: BG1Luc4E2 cells, ERE-luciferase agonist, 22 h; at 70.3 µM (top of the series); further: nearly all actives have a fitted effect of over 20% in size
[13] = qHTS assay to identify small molecule antagonists of the estrogen receptor alpha (ER-alpha) signaling pathway using the BG1 cell line (AID 743080; calls by dose curve;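 further: BG1 cells stimulated with 17beta-estradiol alongside compound; nearly all actives have a fitted effect of over 25% in size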); settings: BG1Luc4E2 ERE-luciferase antagonist mode, luminescence; at 70.3 µM (top of the series)
Outline: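 BG1Luc4E2, endogenous ER-alpha, 4xERE-luc; 5 d charcoal-stripped FBS, phenol red free; 24 h plating; cpd + 17beta-estradiol 21.5 h, 37 C/5% CO2; CellTiter-Fluor viability 30 min, then ONE-Glo luciferase 30 min RT.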

[14] = qHTS assay to identify small molecule antagonists of the estrogen receptor alpha (ER-alpha) signaling pathway using the BG1 cell line - cell viability counter screen (AID 743081); settings: BG1Luc4E2 viability, CellTiter-Fluor, 22 h; at 70.3 µM (top of the series);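 further: compound given together with 17beta-estradiol as the ER stimulus; nearly all actives have a fitted effect of over 45% in size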
[15] = target: Aromatase (Homo sapiens) (UniProt P11511); assay: qHTS assay to identify aromatase inhibitors (AID 743083); settings: MCF-7 aro ERE, testosterone-driven ERE luciferase, 24 h; at 70.3 µM (top of the series); further: nearly all actives have a fitted effect of over 55% in size
[16] = qHTS assay to identify aromatase inhibitors - cell viability counter screen (AID 743084); settings: MCF-7 aro ERE viability, CellTiter-Fluor, 24 h; at 70.3 µM (top of the series);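 further: cells stimulated with testosterone during compound exposure; nearly all actives have a fitted effect of over 55% in size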
[17] = qHTS assay to identify small molecule that activate the aryl hydrocarbon receptor (AhR) signaling pathway - cell viability counter screen (AID 743086); settings: HepG2-AhR-luc viability, CellTiter-Fluor, 24 h; at 70.3 µM (top of the series)
Outline: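 HepG2-AhR-luc (HG2L7.5c1) cells, 4000/well, were preincubated 5 h at 37C, exposed to compound in qHTS format for 24 hr at 37C, then given CellTiter-Fluor for 30 min; viability was read as fluorescence in the reporter wells.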

[18] = target: Peroxisome proliferator-activated receptor gamma (Homo sapiens) (UniProt P37231); assay: qHTS assay to identify small molecule agonists of the peroxisome proliferator-activated receptor gamma (PPARg) signaling pathway (AID 743094; active means well fitted activation curve with a large enough effect in the signal ratio in the repeat runs, not every such curve was filed as active; the % refers to the signal ratio); settings: HEK293H PPARg-UAS-bla, beta-lactamase FRET ratio, 17 h; at 57 µM (top of the series)
Outline: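 Agonist activity was taken from a beta-lactamase reporter (FRET substrate, 1 h at room temperature) in HEK293H cells carrying a PPARg UAS-bla construct. Compounds in DMSO were incubated 17 h at 37C after a 5 h cell pre-incubation.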
On the % scale 0 is the no-effect control and ±100 the full control effect.

CN1CCCC(OC(=O)C(O)(c2ccccc2)c2ccccc2)C1 (stereo not drawn)
inactive: activity change, negative = cytotoxicity [1] -17.6% | activity, negative = cytotoxicity [2] -1.86% | activity change, negative = cytotoxicity [3] -11% | activity change, negative = cytotoxicity [4] 3.37% | viability change, negative = cytotoxic [5] 7.23% | activity change, negative = cytotoxic [6] -12% | activity, negative = inhibition [7] -8.28% | activation [8] -1.73% | activity, negative = inhibition [9] 3.39% | activity, negative = cytotoxicity [10] -5.88% | activation [11] 1.52% | activation [12] 6.45% | activity change, negative = inhibition [13] -0.645% | activity change, negative = cytotoxicity [14] -1.91% | activity, negative = inhibition [15] 0.253% | activity change, negative = cytotoxicity [16] 1.39% | viability change, negative = cytotoxic [17] -1.64% | activation [18] -8.44%

— PubChem BioAssay (Tox21)
